Measurements as given in the NIST ThermoML archive (doi:10.1016/j.jct.2013.08.030).
Numbers after ± are expanded uncertainties.

Assay: activity coefficient (dimensionless); of the first substance listed, at infinite dilution; xn = mol fraction of the nth substance listed
Settings: 101 kPa, Liquid, Chromatography, x1 = 0

Q: For `CCCCOCCCC` [dibutyl ether] + CCCC[N+]1(C)CCOCC1.N#C[C-](C#N)C#N, which activity coefficient (318.15 K) is on record?
A: Its activity coefficient is 39.7 ± 2.7.

Q: What about the activity coefficient (328.15 K) of the same compound?
A: Its activity coefficient is 37.3 ± 2.6.

Q: What about the activity coefficient (338.15 K) of the same compound?
A: The activity coefficient was 35.1 ± 2.4.

Q: What about the activity coefficient (348.15 K) of the same compound?
A: The activity coefficient was 33.3 ± 2.3.

Q: What about the activity coefficient (358.15 K) of the same compound?
A: Its activity coefficient is 31.5 ± 2.2.

Q: What about the activity coefficient (368.15 K) of the same compound?
A: Its activity coefficient is 29.7 ± 2.
